Laboratory results as given in ChEMBL document CHEMBL2086292, “Chalcogenopyrylium compounds as modulators of the ATP-binding cassette transporters P-glycoprotein (P-gp/ABCB1) and multidrug resistance protein 1 (MRP1/ABCC1)” (J Med Chem, 2012).

Assay: Inhibition of P-gp expressed in MDCK2-MDR1 cells by calcein AM accumulation assay
Assay type: cell-based
Details: MDCK-II
Method in brief: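 MDCKII cells transfected with wild-type human MDR1, seeded at 40000 cells/well and used on day 4. Washed in DPBS with 10 mM HEPES pH 7.4, then compound in the same buffer 30 min at 37 °C. Replaced with compound plus 0.5 μg/mL calcein AM for a further 20 min. Fluorescence read at Ex 485/Em 530 nm. Signal expressed relative to 5 μM LSN 335984, taken as complete inhibition; vehicle 0.25% DMSO. IC50 from 1:1 serial dilutions by variable-slope sigmoidal fit.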

IC50: 400 nM
SMILES: O[C@@H](COc1cccc2ncccc12)CN1CCN([C@@H]2c3ccccc3[C@@H]3[C@H](c4ccccc42)C3(Cl)Cl)CC1
